Experimental data reported in PubChem BioAssay (NCI).
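48-hour exposure; five concentrations; linearly interpolated endpoints. The concentration for 50% growth inhibition is given as GI50. Definition used: TGI = concentration required for complete inhibition of growth.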

Test system: MDA-MB-468 breast
Experiment: NCI-60 cell line screen, 48 h

Molecule `O=c1ccc(Oc2ccc([N+](=O)[O-])cc2[N+](=O)[O-])nn1-c1ccc([N+](=O)[O-])cc1[N+](=O)[O-]` has a GI50 of 1860 nM and a TGI of 3670 nM.
